What was measured:
Olfr57 = Olfr57 (Mus musculus, UniProt Q8VGU7); assay: cAMP-dependent dual luciferase reporter assay, Olfr57 expressed in HEK293T cells; assay type: cell-based; conditions: HEK293T cells expressing Olfr57, Firefly:Renilla ratio, 4 h, dose response of at least 6 concentrations; read-out: EC50 for activation of Olfr57
Excerpt: For ORs whose trafficking conditions could be established as described above, an unbiased ligand screen using a dual-luciferase reporter assay (Promega) was used to identify potential ligands. Briefly, ORs were transiently transfected (Lipofectamine 2000, Invitrogen) in triplicate into HEK293T cells along with constructs encoding for CREB-dependent luciferase (Firefly) and a constitutively expressed luciferase (Renilla), along with any accessory proteins previously established to be required for effective cell-surface trafficking. Additional surface labeling experiments were performed with the Firefly and Renilla constructs to ensure effective trafficking was not lost under these transfection conditions. OR activation leads to a rise in cAMP which drives an increase in Firefly luciferase expression. Firefly activity is normalized to the activity of the Renilla luciferase to control for variation in cell number and transfection efficiency. Data were collected using a FLUOstar Omega automated plate reader (BMG LabTech, Cary, NC, United States). Cells were allowed to incubate for at least 30 min in CD293 minimal media, and were then bathed with potential odorants diluted in minimal media for 4 h before measuring Firefly and Renilla-derived luminescence. […] A significant rise in Firefly:Renilla over baseline was determined by multiple T-Tests ([…] deemed significant).

By UniProt entry, the sequences of proteins in these tests, tags left out.
UniProt Q8VGU7, entry or part of it: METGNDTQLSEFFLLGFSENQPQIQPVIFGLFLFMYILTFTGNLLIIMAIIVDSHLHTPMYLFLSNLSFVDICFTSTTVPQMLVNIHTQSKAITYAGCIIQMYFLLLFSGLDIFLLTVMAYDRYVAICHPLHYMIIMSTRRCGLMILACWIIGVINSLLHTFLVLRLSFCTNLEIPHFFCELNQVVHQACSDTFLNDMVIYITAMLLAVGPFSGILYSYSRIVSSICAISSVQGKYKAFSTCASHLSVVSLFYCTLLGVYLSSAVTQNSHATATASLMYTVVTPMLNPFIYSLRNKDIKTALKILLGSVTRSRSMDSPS

CYP2A6 = tested on: CYP2A6; parameters: method as in Gyoubu and Miyazawa, 2007; Miyazawa and Gyoubu, 2007; conditions: ref Gyoubu and Miyazawa, 2007; cited from earlier work

Substance: (1R)-(+)-camphor
- EC50 (Olfr57): 680 µM
- metabolized in the liver by microsomal enzyme CYP2A6 (CYP2A6): metabolized
